Source: PubChem (National Center for Advancing Translational Sciences (NCATS))
Sampled rows, rich in hits. Any-hit rate of the full collection: about 2.5%.
TrxR1 substrate – rat thioredoxin reductase 1 substrate activity; O89049; purified TrxR1 substrate turnover, NADPH consumption readout; Potency, µM (series often up to 114 µM), for the others: at the top dose activity change, negative = substrate turnover; 390,000 tested, 0.01% active; AID 588456; further: potency means the concentration at half of the fitted maximal effect; on the % scale 0 is the no-effect control and ±100 the full control effect; nearly all actives have a fitted effect of over 50% in size
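Rat TrxR1, dispensed at 90 nM, was prereduced with 400 uM NADPH (final) for 5 min at ~22 deg C, then incubated with compound 15 min before 400 uM selenite. A first-read NADPH fluorescence drop versus no-compound background flagged substrates.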
rTrxR1 inhibitor – inhibitors of rat thioredoxin reductase 1 | O89049 | recombinant rTrxR1, NADPH fluorescence consumption, selenite substrate | Potency, µM (top dose mostly 114 µM), inactives show at the highest dose activity change, negative = inhibition, actives largely listed as inhibitors | 390,000 tested, 1% active; further: potency means the concentration at half of the fitted maximal effect; on the % scale 0 is the no-effect control and ±100 the full control effect; nearly all actives have a fitted effect of over 65% in size
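Rat TrxR1 (90 nM in the dispensed reagent) was pre-reduced with 400 uM NADPH for 5 min at room temperature, then incubated with compound for 15 min. After 400 uM selenite was added, NADPH fluorescence (Ex 340/Em 450 nm) was followed for 8 min.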
Apoferritin bind – binds horse apoferritin like a general anesthetic; P02791; apoferritin/1-aminoanthracene competitive binding, fluorescence; Potency, µM (series often up to 77.5 µM), inactives show top-dose activity change, negative = displacement, usual class: inhibitors; 350,000 tested, 0.074% active; further: potency means the concentration at half of the fitted maximal effect; on the % scale 0 is the no-effect control and ±100 the full control effect; nearly all actives have a fitted effect of over 20% in size
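Horse-spleen apoferritin (10 uM) in 50% saturated 1-aminoanthracene in PBS was incubated 10 min at room temperature with compound. Fluorescence (ex 380, em 535 nm) was normalized to free and bound 1-AMA, with concentration-response fitted by a four-parameter Hill equation.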
ClpP mod – qHTS Assay for Activators of ClpP; ATP-dependent Clp protease proteolytic subunit (Bacillus subtilis (strain 168)), P80244; purified B. subtilis ClpP, FRET peptide cleavage, 20 min; Potency, µM (series often up to 57.5 µM), inactives show top-dose activity change, negative = active; 340,000 tested, 1.9% active; AID 651965, 2013; active means well fitted falling curve with a large enough effect; inconclusive means small, poorly fitted or top-dose-only effect; inactive means no such curve, though single readings can be large or run the other way; further: potency means the concentration at half of the fitted maximal effect; the source files actives as falling curves though it sought activators and does not explain the sign; nearly all actives have a fitted effect of over 65% in size
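ClpP 10 microg/mL final, pH 8 Tris/KCl buffer with BSA, glycerol, Tween-20; compound pinned in; FRET-FV substrate; RT 20 min; Ex320/Em430; ΔFRET vs ADEP 5.8 microM, DMSO, no enzyme.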
miR-21 reporter – miR-21 reporter, rising signal | AID 2288 | HeLa miR-21 FLuc reporter, luciferase, 48 h | 340,000 tested, under 10 active | Potency, µM (doses to about 38.3 µM), for inactives: at the top dose reporter change, positive = more light; active = well fitted rising curve with a large enough effect; inconclusive = small, poorly fitted or top-dose-only effect; inactive = no such curve, though single readings can be large or run the other way;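 note: % of control where 0% means no effect; miR-21 action dims this reporter so a rising signal means less miR-21 action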
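HeLa cells stably expressing CMV-driven firefly luciferase with a downstream miR-21 binding sequence, endogenously expressing miR-21, were treated with titrations (up to about 40uM final) for 48 hours at 37 degree Celsius. Luciferase luminescence was read after lysis.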
* hit, by the source's call; u = inconclusive; x = no result; [ ] = another dose, or the depositor's remark. Unless noted, the call rests on the fitted dose curve; in most records, active means well fitted curve in the direction sought with a large enough effect; inconclusive means small, poorly fitted or top-dose-only effect, or another doubt; inactive means no such curve, though single readings can be large; an effect the other way counts as inactive or inconclusive.

Protein sequences, listed by entry. Tags and fused reporters are not part of them.
ATP-dependent Clp protease proteolytic subunit (Bacillus subtilis (strain 168)), P80244, UniProt P80244, whole entry, looked up: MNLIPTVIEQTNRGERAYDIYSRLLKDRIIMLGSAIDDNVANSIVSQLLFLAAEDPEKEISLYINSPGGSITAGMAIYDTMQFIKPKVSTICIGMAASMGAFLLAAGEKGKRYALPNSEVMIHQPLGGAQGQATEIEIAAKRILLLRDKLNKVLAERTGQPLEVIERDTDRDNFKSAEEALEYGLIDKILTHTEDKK

Below each compound – TrxR1 substrate | rTrxR1 inhibitor | Apoferritin bind | ClpP mod | miR-21 reporter
1	O=C1CC=C2C3CC4N(CCC45c4cc(O)c(O)cc4N1C25)CC3=CCBr (centres undefined)
  7%[57.1 µM] | -50%[57.1 µM] | x | 35µM* | x
2	CN(C)c1ccc(/C=C2/C(=O)NC(=O)N(CCc3ccc(F)cc3)C2=O)cc1
  -7% | u | -1% | 0% | 0%
3	CCOc1cc(/C=C2\C(=O)NC(=O)N(CCc3ccc(F)cc3)C2=O)ccc1O
  -5% | 11µM* | 4% | -1% | 9%
4	CCOC(=O)CCCc1cc[c]([Sb](=[O])([OH])[OH])cc1
  -6% | 1.1µM* | x | -3% | x
5	C[C@H]1CC[C@@H]2[C@@H](C)[C@H]3[C@H](C[C@H]4[C@@H]5CC=C6C[C@@H](O[C@@H]7O[C@H](CO)[C@H](O)[C@H](O[C@@H]8O[C@H](CO)[C@@H](O)[C@H](O)[C@H]8O)[C@H]7O[C@@H]7O[C@@H](C)[C@H](O)[C@@H](O)[C@H]7O)CC[C@]6(C)[C@H]5CC[C@]34C)N2C1
  0% | 71µM* | -6% | 0% | 5%
6	CN(C(=O)Cc1ccc(Cl)c(Cl)c1)C(CN1CCCC1)c1cccc(N=C=S)c1 (centres undefined)
  x | x | 8% | x | x
7	CC(C)CN(CC(C)C)c1ccc(C=C2C(=O)NC(=S)NC2=O)cc1[N+](=O)[O-]
  -7% | 2.5µM* | u | 3% | -17%
8	CN(C)c1ccc(C=C2C(=O)NC(=S)NC2=O)cc1
  -10% | 4µM* | x | -2% | x
9	CCOc1cc(C=C2C(=O)NC(=O)NC2=O)ccc1OS(=O)(=O)c1ccccc1
  3%[57.1 µM] | u | u | -1% | -5%
10	CCOc1ccc(C=C2C(=O)NC(=S)NC2=O)cc1OCC
  8%[57.1 µM] | 8.9µM* | x | -2% | x
11	CN(C)c1ccc(C=C2C(=O)NC(=O)NC2=O)cc1
  2%[57.1 µM] | -8%[2.29 µM] | x | 0% | x
12	CCN(CC)c1ccc(C=C2C(=O)NC(=S)NC2=O)cc1
  -5% | 4.5µM* | -19% | 1% | 0%
13	CCOP(=O)(OCC)/C(C#N)=C/c1cc(OC)ccc1OC
  -3%[57.1 µM] | -4%[2.29 µM] | 63% | -4% | 1%
14	CCOCCCNC(=O)c1c[nH]c2ccc(S(=O)(=O)N(C)c3ccc(Cl)cc3F)cc2c1=O
  2%[57.1 µM] | 13%[57.1 µM] | u | 4% | 14%
15	COc1ccc(S(=O)(=O)NCCc2sc3nc(-c4ccc(C)cc4)nn3c2C)cc1F
  3%[57.1 µM] | 5%[57.1 µM] | u | 0% | 28%
16	COc1ccc(/C(=N/OC(C)=O)c2nccc3cc(OC)c(OC)cc23)cc1OC
  -8% | 5% | 6% | -4% | -6%
17	Cc1nc2c(=O)n(C)c(=O)nc-2n(C)n1
  35µM* | 50µM* | 2% | 1% | u
18	Cn1nc(-c2ccccc2)nc2c(=O)n(C)c(=O)nc1-2
  40µM* | u | x | 0% | x
19	c1nc[n]([Sn]([CH]2CCCCC2)([CH]2CCCCC2)[CH]2CCCCC2)n1
  x | x | 5% | x | x
20	CCCc1cc(=O)oc2c3c(cc(OCC(=O)N4CCC[C@H]4C(=O)O)c12)OC(C)(C)CC3
  583% | u | 47% | 5% | -3%
21	CN(C)c1c([N+](=O)[O-])cc(N2C(=O)C=CC2=O)cc1[N+](=O)[O-]
  0% | 2.8µM* | x | -13% | x
22	CN1C(=O)C(=Cc2ccc(Sc3ccccc3)o2)C(=O)N(C)C1=S
  -3% | 20µM* | x | x | x
23	CN1C(=O)C(=Cc2ccc(Sc3ccccc3)o2)C(=O)N(C)C1=O
  6%[57.1 µM] | u | 2% | x | 0%
24	Cc1ccc(S(=O)(=O)Oc2ccccc2C=C2C(=O)N(C)C(=O)N(C)C2=O)cc1
  -3% | 50µM* | -15% | -4% | -13%
25	CCCCCCCCCC[Si](C)(C)CCC(=O)NC(Cc1ccc(C)cc1)c1ccccc1 (centres undefined)
  7%[57.1 µM] | 21%[57.1 µM] | x | x | x
26	CC(=O)Nc1ccc(OC(=O)N2CCN(/[N+]([O-])=N/Oc3ccc([N+](=O)[O-])cc3[N+](=O)[O-])CC2)cc1
  -6% | u | x | x | x
27	c1ccc2c(c1)CN1CCCC1=N2
  3% | 30% | u | x | 0%
28	CCOc1ccccc1-n1c(O)c(C=NCCCN(CC)CC)c(=O)[nH]c1=O
  -4% | -4% | -8% | 32µM* | 1%
29	O=c1oc(Cl)c(Cl)c2ccccc12
  4%[57.1 µM] | 7.5µM* | x | 1% | x

One compound at a time, as listed above. Values in the order: TrxR1 substrate	rTrxR1 inhibitor	Apoferritin bind	ClpP mod	miR-21 reporter
Shown for `c1ccc2c(c1)CN1CCCC1=N2` → 3%	30%	u	x	0%
Shown for `CCOc1cc(C=C2C(=O)NC(=O)NC2=O)ccc1OS(=O)(=O)c1ccccc1` → 3%[57.1 µM]	u	u	-1%	-5%
Shown for `CCOC(=O)CCCc1cc[c]([Sb](=[O])([OH])[OH])cc1` → -6%	1.1µM*	x	-3%	x
Shown for `CN(C)c1ccc(C=C2C(=O)NC(=S)NC2=O)cc1` → -10%	4µM*	x	-2%	x
